The assay addresses T1, human 5-HT1A receptor (Homo sapiens, UniProt P08908).
T1 construct: expressed in transfected cells; host or cells: NIH/3T3
The experiment in a line: R-SAT assay 5-HT1A. Type of assay: cell-based. The following applies: Table 3, 5-HT1A; percent response of reference 8-OH-DPAT.

The chains behind the UniProt entries cited, without tags or fusion partners.
UniProt P08908, whole entry: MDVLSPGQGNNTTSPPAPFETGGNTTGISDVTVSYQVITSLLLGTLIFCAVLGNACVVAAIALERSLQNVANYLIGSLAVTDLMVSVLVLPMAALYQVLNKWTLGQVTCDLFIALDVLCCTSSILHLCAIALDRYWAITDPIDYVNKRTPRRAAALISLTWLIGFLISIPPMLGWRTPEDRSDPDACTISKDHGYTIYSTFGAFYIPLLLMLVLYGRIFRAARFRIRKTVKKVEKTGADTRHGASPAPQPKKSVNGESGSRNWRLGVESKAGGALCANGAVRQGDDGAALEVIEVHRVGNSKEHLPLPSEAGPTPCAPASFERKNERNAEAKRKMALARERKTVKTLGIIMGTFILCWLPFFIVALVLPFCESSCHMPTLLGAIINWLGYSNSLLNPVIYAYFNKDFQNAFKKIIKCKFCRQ

The structures appear in SMILES notation.

Take `CCCN(CCC)C1CCc2cccc(O)c2C1` (stereo not shown) [8-OH-DPAT]: the “Eff (%)” value amounted to 100%.

The values are drawn from patent US20130197032A1, “[…] COMPOUNDS FOR THE TREATMENT OF NEUROLOGICAL AND […] DISORDERS” (A. CARLSSON RESEARCH AB, priority 2010, published 2013).
